Test results from ChEMBL document CHEMBL1123300 (J Med Chem, 1986).

By UniProt entry, the sequences of proteins in these tests, tags left out. Where a name states a change or a piece, a line headed by the entry shows the natural chain unless it says otherwise.
UniProt P00797: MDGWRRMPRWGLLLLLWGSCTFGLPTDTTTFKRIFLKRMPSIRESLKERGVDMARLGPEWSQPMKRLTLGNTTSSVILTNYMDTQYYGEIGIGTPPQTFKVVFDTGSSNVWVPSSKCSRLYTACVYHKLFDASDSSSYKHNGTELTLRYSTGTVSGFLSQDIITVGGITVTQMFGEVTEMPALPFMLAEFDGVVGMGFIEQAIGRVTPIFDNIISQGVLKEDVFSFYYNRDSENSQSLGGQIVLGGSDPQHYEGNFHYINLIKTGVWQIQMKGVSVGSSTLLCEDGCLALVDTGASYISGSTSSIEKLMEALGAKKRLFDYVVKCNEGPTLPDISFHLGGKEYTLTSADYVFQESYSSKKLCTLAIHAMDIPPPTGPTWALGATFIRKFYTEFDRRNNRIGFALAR

Experiments:
Renin [1] = target: T1, Renin (Homo sapiens, UniProt P00797); experiment: In vitro inhibitory activity against human plasma renin; type: cell-free
Renin [2] = target: T1, Renin; experiment: In vitro inhibitory activity against man plasma renin; type: cell-free

| SMILES | IC50 (Renin [1]) | IC50 (Renin [2]) |
| --- | --- | --- |
| COC(=O)CC(O)[C@H](CC(C)C)NC(=O)[C@H](C)NC(=O)CC(O)[C@H](CC(C)C)NC(=O)[C@@H](NC(=O)[C@@H](Cc1ccccc1)NC(=O)OC(C)(C)C)C(C)C (stereo not given in full) | 10 µM | – |
| COC(=O)C[C@H](O)[C@H](CC(C)C)NC(=O)[C@H](C)NC(=O)C[C@H](O)[C@H](CC(C)C)NC(=O)[C@H](Cc1c[nH]c2ccccc12)NC(=O)[C@H](Cc1c[nH]c2ccccc12)NC(=O)OC(C)(C)C | 150 µM | 0.17 µM |
| COC(=O)C[C@H](O)[C@H](CC(C)C)NC(=O)[C@H](C)NC(=O)C[C@H](O)[C@H](CC(C)C)NC(=O)[C@@H](Cc1c[nH]c2ccccc12)NC(=O)[C@H](Cc1c[nH]c2ccccc12)NC(=O)OC(C)(C)C | > 100 µM | – |
| COC(=O)C[C@H](O)[C@H](CC(C)C)NC(=O)[C@H](C)NC(=O)C[C@H](O)[C@H](CC(C)C)NC(=O)[C@H](Cc1c[nH]c2ccccc12)NC(=O)[C@@H](Cc1c[nH]c2ccccc12)NC(=O)OC(C)(C)C | > 100 µM | – |
